Results on 30 molecules are retold here after US10442819B2, “Tricyclic compounds as inhibitors of mutant IDH enzymes” (Merck Sharp & Dohme Corp., priority 2014, dated 2019).

Protein sequences, listed by entry. Tags and fused reporters are not part of them.
UniProt O75874, whole entry R132H: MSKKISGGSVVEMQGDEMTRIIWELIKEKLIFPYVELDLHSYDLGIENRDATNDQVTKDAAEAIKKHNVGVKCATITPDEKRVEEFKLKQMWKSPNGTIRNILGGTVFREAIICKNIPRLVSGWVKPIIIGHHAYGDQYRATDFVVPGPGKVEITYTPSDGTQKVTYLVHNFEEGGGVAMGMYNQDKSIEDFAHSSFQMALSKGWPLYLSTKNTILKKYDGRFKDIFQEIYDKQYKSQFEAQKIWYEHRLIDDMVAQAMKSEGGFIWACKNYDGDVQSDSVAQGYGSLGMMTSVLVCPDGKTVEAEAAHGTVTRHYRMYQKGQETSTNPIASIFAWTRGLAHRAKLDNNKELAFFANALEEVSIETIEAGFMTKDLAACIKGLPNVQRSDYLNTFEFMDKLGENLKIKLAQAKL

The test has as its target R132H mutant IDH1 enzyme (Homo sapiens (Human), UniProt O75874, R132H). The test can be described thus: R132H IDH1 Enzymatic Assay. In kind it is biochemical. The note with it: R132H mutant IDH1 enzyme 1.5 nM final; luminescence readout; read-out: IC50.

The structures appear in SMILES notation.

As for `CO[C@H]1CC[C@H](C(=O)N2Cc3cccnc3Nc3ccc(N4CCOC(c5ccc(F)cc5)C4)cc32)CC1` (stereo partly drawn) [Example 258, 8-[2-(4-fluorophenyl)morpholin-4-yl]-6-[(trans-4-methoxycyclohexyl)carbonyl]-6,11-dihydro-5H-pyrido[2,3-b][1,5]benzodiazepine], the IC50 (usually the midpoint of a concentration-inhibition curve) is 266 nM. `CC(C)O[C@H]1CC[C@H](C(=O)N2Cc3cccnc3Nc3ccc(C4COCCO4)cc32)OC1` (single isomer, unassigned) [Example 13]: the IC50 was 58 nM. On to `CO[C@H]1CC[C@H](C(=O)N2Cc3cccnc3Nc3ccc(-c4cnn(CCO)c4)cc32)CC1` [Example 366, 2-(4-{6-[(trans-4-methoxycyclohexyl)carbonyl]-6,11-dihydro-5H-pyrido[2,3-b][1,5]benzodiazepin-8-yl}-1H-pyrazol-1-yl)ethanol], for which the IC50 is 291 nM.

As for `COC1CCN(c2ccc3c(c2)N(C(=O)[C@H]2CC[C@H](OC)CC2)Cc2cccnc2N3)CC1(F)F` (stereo partly drawn) [Example 211, 8-(3,3-difluoro-4-methoxypiperidin-1-yl)-6-[(trans-4-methoxycyclohexyl)carbonyl]-6,11-dihydro-5H-pyrido[2,3-b][1,5]benzodiazepine], the IC50 is 152 nM. The figure for `CCO[C@H]1CC[C@@H](C(=O)N2Cc3cccnc3Nc3ccc(N4CCOCC4)cc32)C[C@H]1C` [Example 152, 6-{[(1R,3R,4S)-4-ethoxy-3-methylcyclohexyl]carbon-yl}-8-morpholin-4-yl-6,11-dihydro-5H-pyrido[2,3-b][1,5]benzodiazepine] is 46 nM; for `CO[C@H]1CC[C@H](C(=O)N2Cc3cccnc3Nc3ccc(-c4ccnn4C(C)C)cc32)CC1` [Example 367, 6-[(trans-4-methoxycyclohexyl)carbonyl]-8-[1-(1-methyethyl)-1H-pyrazol-5-yl]-6,11-dihydro-5H-pyrido[2,3-b][1,5]benzodiazepine] it is 110 nM. `O=C([C@H]1CC[C@@H](NCC(F)(F)F)CC1)N1Cc2cccnc2Nc2ccc([C@H]3CCCOC3)cc21` [Example 378, cis-4-({8-[(3R)-tetrahydro-2H-pyran-3-yl]-5,11-dihydro-6H-pyrido[2,3-b][1,5]benzodiazepin-6-yl}carbonyl)-N-(2,2,2-trifluoroethyl)cyclohexanamine]: the IC50 turned out to be 63 nM. The same measure for `CO[C@H]1CC[C@H](C(=O)N2Cc3cccnc3Nc3ccc(C4=CCN(C)C(=O)C4)cc32)CC1` [Example 373, 4-{6-[(trans-4-methoxycyclohexyl)carbonyl]-6,11-dihydro-5H-pyrido[2,3-b][1,5]benzodiazepin-8-yl}-1-methyl-3,6-dihydropyridin-2(1H)-one]: 145 nM; for `CO[C@H]1CC[C@H](C(=O)N2Cc3cccnc3Nc3ccc(-c4cncs4)cc32)CC1` [Example 177, 6-[(Trans-4-methoxycyclohexyl)carbonyl]-8-(1,3-thiazol-5-yl)-6,11-dihydro-5H-pyrido[2,3-b][1,5]benzodiazepine]: 69 nM.

For the molecule `CO[C@H]1CC[C@H](C(=O)N2Cc3cccnc3Nc3ccc(N4CCN(C5(C(F)(F)F)CC5)CC4)cc32)CC1` [Example 244, 6-[(trans-4-methoxycyclohexyl)carbonyl] 8-{4-[1-(trifluoromethyl)cyclopropyl]piperazin-1-yl}-6,11-dihydro-5H-pyrido[2,3-b][1,5]benzodiazepine], the IC50 came to 300 nM. Regarding `CN(CC(F)(F)F)[C@H]1CC[C@H](C(=O)N2Cc3cccnc3Nc3ccc(N4CCOCC4)cc32)CC1` [Example 504, trans-N-methyl-4-[(8-morpholin-4-yl-5,11-dihydro-6H-pyrido[2,3-b][1,5]benzodiazepin-6-yl)carbonyl]-N-(2,2,2-trifluoroethyl)cyclohexanamine], the IC50 amounted to 273 nM.

In the case of `CO[C@H]1CC[C@H](C(=O)N2Cc3cccnc3Nc3ccc(N4CCOC5(CC5)C4)cc32)CC1` [Example 294, 6-[(trans-4-methoxycyclohexyl)carbonyl]-8-(4-oxa-7-azaspiro[2.5]oct-7-yl)-6,11-dihydro-5H-pyrido[2,3-b][1,5]benzodiazepine], the 50% inhibitory concentration (IC50) came to 846 nM. On to `CC(C)(C)O[C@H]1CC[C@H](C(=O)N2Cc3cccnc3Nc3ccc(N4CC5COCC(C4)O5)cc32)CC1` [Example 327, 6-[(trans-4-tert-butoxycyclohexyl)carbonyl]-8-(3,9-dioxa-7-azabicyclo[3.3.1]non-7-yl)-6,11-dihydro-5H-pyrido[2,3-b][1,5]benzodiazepine], for which the IC50 is 32 nM. Turning to `CC(C)O[C@H]1CC[C@H](C(=O)N2Cc3cccnc3Nc3ccc(N4C5COCC4COC5)cc32)CC1` [Example 338, 8-(3,7-dioxa-9-azabicyclo[3.3.1]non-9-yl)-6-{[trans-4-(1-methylethoxy)cyclohexyl]car-bonyl}-6,11-dihydro-5H-pyrido[2,3-b][1,5]benzodiazepine], the half-inhibitory concentration (IC50) came to 43 nM. On to `[2H]C1([2H])OC([2H])([2H])C([2H])([2H])N(c2ccc3c(c2)N(C(=O)[C@H]2CC[C@H](OC)CC2)Cc2cccnc2N3)C1([2H])[2H]` [Example 235, (trans-4-methoxycyclohexyl){8-[(^2H8)morpholin-4-yl]-5,11-dihydro-6H-pyrido[2,3-b][1,5]benzodiazepin-6-yl}methanone], for which the IC50 was 961 nM. With `CCC(=O)N1c2ccc(N3CC4CCC3CN4C(=O)CC)cc2N(C(=O)C2CC(C)(C)C2)Cc2cccnc21` (stereo not drawn) [Example 502, 6-[(3,3-dimethylcyclobutyl)carbonyl]-11-propanoyl-8-(5-propanoyl-2,5-diazabicyclo[2.2.2]oct-2-yl)-6,11-dihydro-5H-pyrido[2,3-b][1,5]benzodiazepine], the IC50 came to 574 nM.

With `CO[C@H]1CC[C@@H](C(=O)N2Cc3cccnc3Nc3ccc(C(=O)N4CCCC4)cc32)CC1` [Example 4, 6-[(Cis-4-methoxycyclohexyl)carbonyl]-8-(pyrrolidin-1-ylcarbonyl)-6,11-dihydro-5H-pyrido[2,3-b][1,5]benzodiazepine], the IC50 is 152 nM. The figure for `CCO[C@H]1CC[C@@H](C(=O)N2Cc3cccnc3Nc3ccc(N4C[C@H]5CC[C@@H]4CO5)cc32)CC1(F)F` [Example 333, 6-{[(1R,4S)-4-ethoxy-3,3-difluorocyclohexyl]carbonyl}-8-[(1R,4R)-2-oxa-5-azabicyclo[2.2.2]oct-5-yl]-6,11-dihydro-5H-pyrido[2,3-b][1,5]benzodiazepine] is 6 nM; for `CC(C)O[C@H]1CC[C@H](C(=O)N2Cc3cccnc3Nc3ccc([C@@H]4COC[C@@H]4C)cc32)OC1` (single isomer, unassigned) [Example 537] it is 11 nM. `CC(C)O[C@H](C)[C@H]1CC[C@H](C(=O)N2Cc3cccnc3Nc3ccc(N4CCOCC4)cc32)CC1` [Example 173, [8-(Morpholin-4-yl)-5,11-dihydro-6H-pyrido[2,3-b][1,5]benzodiazepin-6-yl]{trans-4-[(1R)-1-(propan-2-yloxy)ethyl]cyclohexyl}methanone]: the IC50 was found to be 144 nM. The same measure for `CO[C@H]1CC[C@H](C(=O)N2Cc3cccnc3Nc3ccc(-c4sc(C)nc4C)cc32)CC1` [Example 364, 8-(2,4-dimethyl-1,3-thiazol-5-yl)-6-[(trans-4-methoxycyclohexyl)carbonyl]-6,11-dihydro-5H-pyrido[2,3-b][1,5]benzodiazepine]: 44 nM; for `CO[C@H]1CC[C@H](C(=O)N2Cc3cccnc3Nc3ccc(N4CC(OC(C)C)C4)cc32)CC1` [Example 285, 6-[(trans-4-methoxycyclohexyl)carbonyl]-8-[3-(1-methylethoxy)azetidin-1-yl]-6,11-dihydro-5H-pyrido[2,3-b][1,5]benzodiazepine]: 271 nM; for `COC1CCC(C(=O)N2Cc3cccnc3Nc3ccc(Br)cc32)CC1` (stereo not drawn) [Example 74, 8-bromo-6-[(4-methoxycyclohexyl)car-bonyl]-6,11-dihydro-5H-pyrido[2,3-b][1,5]benzodiazepine]: 330 nM. With `CO[C@H]1CC[C@H](C(=O)N2Cc3cccnc3Nc3ccc(C(=O)N4CCCC4)cc32)CC1` [Example 3, 6-[(Trans-4-methoxycyclohexyl)carbonyl]-8-(pyrrolidin-1-ylcarbonyl)-6,11-dihydro-5H-pyrido[2,3-b][1,5]benzodiazepine], the IC50 amounted to 273 nM. The figure for `O=C([C@H]1CC[C@H](NC2(C(F)(F)F)CC2)CC1)N1Cc2cccnc2Nc2ccc(N3CC4CCC3CO4)cc21` (stereo partly drawn) [Example 312, trans-4-{[8-(2-oxa-5-azabicyclo[2.2.2]oct-5-yl)-5,11-dihydro-6H-pyrido[2,3-b][1,5]benzodiazepin-6-yl]carbonyl}-N-[1-(trifluoromethyl)cyclopropyl] cyclohexanamine] is 30 nM. The same measure for `CO[C@H]1CC[C@H](C(=O)N2Cc3cccnc3Nc3ccc(N4CCCC(OCC(F)(F)F)C4)cc32)CC1` (stereo partly drawn) [Example 246, 6-[(trans-4-methoxycyclohexyl)carbonyl]-8-[3-(2,2,2-trifluoroethoxy)piperidin-1-yl]-6,11-dihydro-5H-pyrido[2,3-b][1,5]benzodiazepine]: 459 nM; for `CC(C)OC1CCC(C(=O)N2Cc3cccnc3Nc3ccc(CN4C[C@@H]5C[C@H]4CO5)cc32)CC1` (stereo partly drawn) [Example 488, 6-{[4-(1-methylethoxy)cyclohexyl]carbonyl}-8-[(1S,4S)-2-oxa-5-azabicyclo[2.2.1]hept-5-ylmethyl]-6,11-dihydro-5H-pyrido[2,3-b][1,5]benzodiazepine]: 378 nM. The figure for `O=C([C@@H]1CC[C@H](NC2(C(F)(F)F)CC2)CO1)N1Cc2cccnc2Nc2ccc(N3CCOCC3)cc21` (single isomer, unassigned) [Example 472] is 57 nM; for `CO[C@H]1CC[C@H](C(=O)N2Cc3cccnc3Nc3ccc(N4CCCC(CN5CCOCC5)C4)cc32)CC1` (stereo partly drawn) [Example 245, 6-[(trans-4-methoxycyclohexyl)carbonyl]-8-[3-(morpholin-4-ylmethyl)piperidin-1-yl]-6,11-dihydro-5H-pyrido[2,3-b][1,5]benzodiazepine] it is 286 nM. For `CC(C)O[C@H]1CC[C@H](C(=O)N2Cc3cccnc3Nc3ccc(C4CCC(C)O4)cc32)OC1` (stereo partly drawn) [Example 533, ((2R,5S)-5-isopropoxytetrahydro-2H-pyran-2-yl)(8-(5-methyltetrahydrofuran-2-yl)-5,11-dihydro-6H-benzo[b]pyrido[2,3-e][1,4]diazepin-6-yl)methanone], the IC50 came to 17 nM.
